In the test the target is T1, human SAP (Homo sapiens, UniProt P02743).
T1 construct: from tissue; host or cells: natural human SAP, purified
Put plainly: Biacore kinetics, human SAP captured on immobilised O-phosphoethanolamine. Conditions: CM5 chip, calcium; bivalent analyte model; 25° C.; for comparison only, avidity effect. The format is binding. On the procedure:
O-phosphoethanolamine was immobilised on a Biacore CM5 chip by primary amine coupling in accordance with the manufacturer's instructions. Human SAP was then captured on the surface in the presence of calcium chloride, in order to replicate in the Biacore system in vitro, the precise orientation of SAP molecules bound to amyloid fibrils in vivo. Anti SAP antibodies were then passed over this surface at 256, 64, 16, 4, 1 nM and a binding sensorgrams obtained. Analysis was carried out at 25° C. using 4% BSA, 10 mM Tris, 140 mM NaCl, 2 mM CaCl2, 0.05% surfactant P20, 0.02% Na N3, pH 8.0 as running buffer. […] Data generated were double referenced with a buffer injection over the human SAP surface and analyzed using the bivalent analyte model in the Biacore T100 evaluation software.
Avidity is more likely to have affected antibody dissociation rates, leading to lower calculated KD values. Furthermore, for all the SAP-E antibodies, the dissociation rate (kd) obtained is outside the limit of the Biacore measurement range.
On the technique in general: Surface plasmon resonance follows binding to a sensor surface in real time, without labels.

Protein sequences, listed by entry. Tags and fused reporters are not part of them. Residues count along the entry.
UniProt P02743, 20-223: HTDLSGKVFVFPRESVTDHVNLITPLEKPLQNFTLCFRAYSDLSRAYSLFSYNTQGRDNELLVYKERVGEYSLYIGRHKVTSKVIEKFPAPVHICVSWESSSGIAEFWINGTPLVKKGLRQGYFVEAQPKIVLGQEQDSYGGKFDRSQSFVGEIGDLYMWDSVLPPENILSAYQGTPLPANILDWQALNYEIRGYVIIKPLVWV

B1: SAP-E chimera: SAP-E chimeric antibody, human IgG1/κ, heavy SEQ ID NO:21, light SEQ ID NO:22 (protein)
chain 1: QASLQQSGTELVRSGASVKMSCKASGFTFATYNMHWIKQTPGQGLEWIGYIYPGDGNANYNQQFKGKATLTADTSSNTAYMQISSLTSEDSAVYFCRDFDYDGGYYFDSWGQGTLVTVSSASTKGPSVFPLAPSSKSTSGGTAALGCLVKDYFPEPVTVSWNSGALTSGVHTFPAVLQSSGSLSSVVTVPSSSLGTQTYICNVNHKPSNTKVDKKVEPKSCDKTHTCPPCPAPELLGGPSVFLFPPKPKDTLMISRTPEVTCVVVDVSHEDPEVKFNWYVDGVEVHNAKTKPREEQYNSYVVSVLTVLHQDWLNGKEYKCKVSNKALPAPIEKTISKAKGQPREPQVYTLPPSRDELTKNQVSLTCLVKGFYPSDIAVEWESNGQPENNYKTTPPVLDSDGSFFKKLTVDKSRWQQGNVFSCSVMHEALHNHYTQKSLSLSPGK
chain 2: DIQMTQSPASLSASVGETVTITCRASENIYSYLAWYQQKQGRSPQLLVHNAKTLAEGVPSRVSGSGSGTHFSLKINGLQPEDFGNYYCQHHYGAPLTFGAGTKLELKRTVAAPSVFIFPPSDEQLKSGTASVVCLLNNFYPREAKVQWKVDNALQSGNSQESVTEQDSKDSTYSLSSTLTLSKADYEKHKVYACEVTHQGLSSPVTKSFNRGEC
For the molecule B1, the Kd is 0.0449 nM.

(Values after patent publication US9434716B2, “Antigen binding proteins” (Glaxo Group Limited, priority 2011, dated 2016).)
